Only a part is listed here, and it is no random draw. The source made the active and inactive calls.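 Rule for the calls: active = inhibition above the screen-wide mean inhibition plus 3 SD (cut at about 21% in these data); inactive = the rest.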
Target: cAMP-dependent protein kinase catalytic subunit alpha (Homo sapiens) (UniProt P17612)
Assay: inhibitors of human PKA kinase activity, primary screen, biochemical, ATP-depletion luminescence, Kemptide substrate (AID 524)
Details: PKA Kemptide phosphorylation, Kinase-Glo ATP luminescence; at 6 µM; hits give high values

For `N#CC1(Nc2ccccc2)CCN(CCc2ccccc2)CC1`, which inhibition is on record?
Its inhibition is inactive: 7.6%.

`COc1ccc(NC2CCN(CCc3ccccc3)CC2)c(OC)c1` was tested. Which inhibition did it give?
Its inhibition is inactive: -4.7%.

`O=C(OC1CN2CCC1CC2)C1c2ccccc2Oc2ccccc21` (configuration not stated) was tested. Which inhibition did it give?
Its inhibition is inactive: 5.9%.

`CCOc1ncccc1C(=O)NCC1(N2CCOCC2)CCCCC1` was tested. Which inhibition did it give?
The inhibition was inactive: 8.2%.

With `CCC(CO)(C(=O)OC1CN2CCC1CC2)c1ccccc1` (configuration not stated) as the compound, how does the inhibition read?
The inhibition was inactive: -0.8%.

How did the inhibition turn out when `Fc1ccccc1NC1CCN(Cc2ccccc2)CC1` was run?
Its inhibition is inactive: 8.5%.

How did the inhibition turn out when `N/C(=N\O)c1c(N)no[n+]1[O-]` was run?
Its inhibition is inactive: 2.6%.

Source: PubChem BioAssay AID524 (The Scripps Research Institute Molecular Screening Center, 2006)
